What is called inhibition is the drop in the measured response relative to a control, in per cent.

Chains of the proteins cited; added tags and fusions are not shown.
UniProt P54760, whole entry: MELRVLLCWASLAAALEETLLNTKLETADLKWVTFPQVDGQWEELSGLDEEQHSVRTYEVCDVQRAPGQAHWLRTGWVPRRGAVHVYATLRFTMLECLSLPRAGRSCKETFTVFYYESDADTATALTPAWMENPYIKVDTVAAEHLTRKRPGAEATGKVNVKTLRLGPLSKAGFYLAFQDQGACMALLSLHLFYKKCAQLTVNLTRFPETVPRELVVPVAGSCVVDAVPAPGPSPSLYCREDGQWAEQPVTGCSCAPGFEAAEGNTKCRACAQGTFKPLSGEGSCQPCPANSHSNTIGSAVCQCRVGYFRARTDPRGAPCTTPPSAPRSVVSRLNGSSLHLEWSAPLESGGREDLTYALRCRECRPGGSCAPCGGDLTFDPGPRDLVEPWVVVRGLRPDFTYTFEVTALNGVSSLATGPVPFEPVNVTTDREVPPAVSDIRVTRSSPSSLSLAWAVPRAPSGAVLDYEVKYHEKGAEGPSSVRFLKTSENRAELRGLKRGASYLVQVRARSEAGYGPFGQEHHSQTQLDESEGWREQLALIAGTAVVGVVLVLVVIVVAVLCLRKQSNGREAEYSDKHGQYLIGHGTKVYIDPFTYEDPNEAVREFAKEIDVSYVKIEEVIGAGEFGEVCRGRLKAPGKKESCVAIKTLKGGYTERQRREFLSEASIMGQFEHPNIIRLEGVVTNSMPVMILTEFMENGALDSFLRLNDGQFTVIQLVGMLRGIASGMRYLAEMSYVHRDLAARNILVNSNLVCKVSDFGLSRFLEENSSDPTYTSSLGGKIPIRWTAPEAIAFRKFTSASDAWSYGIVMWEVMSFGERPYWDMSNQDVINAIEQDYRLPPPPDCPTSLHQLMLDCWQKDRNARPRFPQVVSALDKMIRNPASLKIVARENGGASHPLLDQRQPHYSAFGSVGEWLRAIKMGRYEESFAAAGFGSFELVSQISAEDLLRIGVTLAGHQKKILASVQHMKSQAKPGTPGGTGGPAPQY

In PubChem BioAssay AID720 (The Scripps Research Institute Molecular Screening Center, 2007) one finds inhibition data, which are given here for 30 molecules.

This is a selection; strong and weak results do not stand in their true shares. Activity calls are given as the source filed them.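 The calls were made as follows: active = inhibition above the screen-wide mean inhibition plus 3 SD (cut at about 15% in these data); inactive = the rest.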

This experiment deals with Ephrin type-B receptor 4 (Homo sapiens) (UniProt P54760). Kind of experiment: blockers of EphB4 ligand binding – biochemical, TNYL-RAW peptide probe, fluorescence polarization, primary screen (AID 720).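 Also: 0% = DMSO wells and 100% = excess unlabeled TNYL-RAW peptide.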 To be noted: EphB4 LBD / TNYL-RAW-Alexa532 peptide, at 7 µM, active compounds read high. (In general: In fluorescence polarisation assays a small probe gives low polarisation when free and higher when bound to something large.)
For `COc1ccc(OP(C)(=O)Nc2cccc(F)c2)cc1` (stereo not given), the inhibition was inactive: 1.07%.

For `CP(=O)(NC(=O)Nc1ccccc1)Oc1ccccc1` (stereo not given), the inhibition is inactive: -3.45%.

In the case of `CP(=O)(Nc1ccccn1)Oc1ccc(Cl)cc1` (stereo not given), the inhibition was inactive: -0.2%.

Consider `CP(=S)(Nn1cnnc1)Oc1ccccc1` (stereo not given), for which the inhibition was inactive: -0.27%.

For the molecule `COc1ccccc1OP(C)(=O)Nc1c(C)cccc1C` (stereo not given), the inhibition was inactive: -4.48%.

`Cc1nc2ccc3ccccc3c2s1.O=[N+]([O-])c1cc([N+](=O)[O-])c(O)c([N+](=O)[O-])c1`: the inhibition is inactive: 9.95%.

On to `Cc1cc(C)cc(OP(C)(=O)Nc2ccc(C)cc2C)c1` (stereo not given), for which the inhibition was inactive: -7.68%.

For `Cc1ccc(C)c(NP(C)(=O)Oc2ccccc2)c1` (stereo not given), the inhibition was inactive: 0.66%.

Regarding `Cc1cc(C)cc(OP(C)(=O)Nc2ccccn2)c1` (stereo not given), the inhibition is inactive: 2.97%.

Take `CP(=O)(Nc1ccccc1)Oc1ccc(F)cc1` (stereo not given): the inhibition was inactive: 3.6%.

With `CCN(CC)CCCOC(=O)C(O)(c1ccccc1)C1CCCCC1` (stereo not given), the inhibition was inactive: 1.4%.

As to `CP(=O)(Nc1ccccc1F)Oc1ccccc1` (stereo not given), the inhibition was inactive: 2.21%.

Take `CCOP(C)(=S)SCC(=O)NC(C)(CC)C(=O)O` (stereo not given): the inhibition was inactive: -8.4%.

On to `CP(=O)(Nc1ccc2c(c1)OCCO2)Oc1ccccc1` (stereo not given), for which the inhibition is inactive: -3.62%.

`CN(C)CCOC(=O)C(O)(c1ccccc1)C1CCCCC1` (stereo not given): the inhibition is inactive: -7.66%.

Take `COc1ccc(OP(C)(=O)Nc2cccc(Br)c2)cc1` (stereo not given): the inhibition was inactive: -3.81%.

As for `CP(=O)(OC12CC3CC(CC(C3)C1)C2)OC12CC3CC(CC(C3)C1)C2`, the inhibition was inactive: -2.06%.

As for `COc1ccccc1OP(C)(=O)Nc1c(C)n(C)n(-c2ccccc2)c1=O` (stereo not given), the inhibition was inactive: -11.5%.

For `CP(=O)(Oc1ccccc1)N1CCOC1=O` (stereo not given), the inhibition was inactive: -1.46%.

On to `CCN(CC)CC(O)COC(=O)C(O)(c1ccccc1)C1CCCCC1` (stereo not given), for which the inhibition is inactive: -0.45%.

Turning to `CC(C)(C)c1ccc(OP(C)(=O)O)cc1`, the inhibition was inactive: -1.21%.

Turning to `CP(=O)(Nc1ccc(Cl)cc1)Oc1ccc(F)cc1` (stereo not given), the inhibition was inactive: -4.12%.

With `COc1ccc(OP(C)(=O)Nc2ccccn2)cc1` (stereo not given), the inhibition is inactive: -1.93%.

In the case of `CN(C)CCOC(=O)C(O)(c1ccccc1)C1CCCC1` (stereo not given), the inhibition is inactive: 1.05%.

On to `CP(=O)(Nc1ccccn1)Oc1ccccc1` (stereo not given), for which the inhibition was inactive: 7.13%.

As to `COc1ccccc1OP(C)(=O)Nc1ccc(C)cc1C` (stereo not given), the inhibition is inactive: -4.07%.

Regarding `CCc1ccc(OP(C)(=O)O)cc1`, the inhibition is inactive: 0.03%.

Take `Cc1c(NP(C)(=O)Oc2ccc(C(C)C)cc2)c(=O)n(-c2ccccc2)n1C` (stereo not given): the inhibition is inactive: 0.91%.

For `COc1ccccc1OP(C)(=O)Nc1ccc(C)c(C)c1` (stereo not given), the inhibition was inactive: 2.15%.

`Cc1nc2ccc3ccccc3c2o1.O=[N+]([O-])c1cc([N+](=O)[O-])c(O)c([N+](=O)[O-])c1`: the inhibition is inactive: 7.27%.
